Measured values reported in patent publication US11932650B2, “Potent agelastatin derivatives as modulators for cancer invasion and metastasis” (Massachusetts Institute of Technology, priority 2017, dated 2024).

Tested on: breast cancer cell line SUM1315 and Tiam1-deficient fibroblast mixed cell xenograft
Assay: Direct treatment of mixed cell tumor-fibroblast xenograft-bearing mice
Conditions: AgA 1.25 mg/kg; FIG. 11

CN1C(=O)N[C@H]2[C@@H]3NC(=O)c4ccc(Br)n4[C@@H]3C[C@]21O [AgA (1), (−)-agelastatin A]
mice with 0 lung metastases: ~800
